Test results from US20230114241A1, “METHODS OF TREATING EPILEPSY USING THE SAME” (Trevena, Inc., priority 2019, published 2023).

The chains behind the UniProt entries cited, without tags or fusion partners. Where a name states a change or a piece, a line headed by the entry shows the natural chain unless it says otherwise.
UniProt P21453, whole entry: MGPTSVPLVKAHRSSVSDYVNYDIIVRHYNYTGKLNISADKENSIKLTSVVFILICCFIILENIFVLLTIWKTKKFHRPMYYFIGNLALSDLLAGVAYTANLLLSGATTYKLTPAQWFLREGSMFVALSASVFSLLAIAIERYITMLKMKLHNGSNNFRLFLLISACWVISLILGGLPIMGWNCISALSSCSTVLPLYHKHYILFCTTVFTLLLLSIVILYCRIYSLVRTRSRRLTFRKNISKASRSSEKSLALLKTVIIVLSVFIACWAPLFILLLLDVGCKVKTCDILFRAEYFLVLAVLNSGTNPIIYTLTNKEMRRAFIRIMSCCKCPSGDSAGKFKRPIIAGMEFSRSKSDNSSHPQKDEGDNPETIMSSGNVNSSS
UniProt O95136: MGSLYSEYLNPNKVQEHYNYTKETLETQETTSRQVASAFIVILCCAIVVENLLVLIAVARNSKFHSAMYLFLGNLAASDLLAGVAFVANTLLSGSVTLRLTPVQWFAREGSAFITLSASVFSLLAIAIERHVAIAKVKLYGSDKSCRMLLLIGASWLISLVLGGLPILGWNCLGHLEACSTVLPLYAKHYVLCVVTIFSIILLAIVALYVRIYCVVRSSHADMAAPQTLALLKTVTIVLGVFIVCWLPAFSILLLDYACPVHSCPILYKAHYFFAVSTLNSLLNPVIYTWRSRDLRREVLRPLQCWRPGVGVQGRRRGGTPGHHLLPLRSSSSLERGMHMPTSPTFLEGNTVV
UniProt Q99500: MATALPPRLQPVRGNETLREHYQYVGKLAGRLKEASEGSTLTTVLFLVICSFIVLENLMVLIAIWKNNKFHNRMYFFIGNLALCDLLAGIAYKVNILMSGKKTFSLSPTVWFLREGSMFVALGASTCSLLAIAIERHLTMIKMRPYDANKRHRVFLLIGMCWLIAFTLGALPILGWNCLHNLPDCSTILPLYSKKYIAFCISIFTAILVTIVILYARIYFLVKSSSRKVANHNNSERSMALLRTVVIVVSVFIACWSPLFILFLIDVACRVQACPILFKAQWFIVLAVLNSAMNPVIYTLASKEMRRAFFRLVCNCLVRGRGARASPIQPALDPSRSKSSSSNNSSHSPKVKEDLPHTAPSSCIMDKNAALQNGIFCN
UniProt Q9H228: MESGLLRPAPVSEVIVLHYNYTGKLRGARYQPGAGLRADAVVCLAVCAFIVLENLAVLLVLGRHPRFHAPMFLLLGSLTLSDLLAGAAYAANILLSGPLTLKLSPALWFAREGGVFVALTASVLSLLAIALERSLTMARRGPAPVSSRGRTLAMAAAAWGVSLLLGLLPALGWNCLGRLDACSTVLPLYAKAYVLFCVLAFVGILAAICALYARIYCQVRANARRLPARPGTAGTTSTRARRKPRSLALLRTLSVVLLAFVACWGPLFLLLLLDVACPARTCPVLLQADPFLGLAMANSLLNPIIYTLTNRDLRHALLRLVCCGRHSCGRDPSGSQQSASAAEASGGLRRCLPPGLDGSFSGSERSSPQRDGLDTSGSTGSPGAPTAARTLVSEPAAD

Experiments:
Type in all cases: cell-based
[1] = biological target: human sphingosine-1-phosphate receptor 1 (S1P1) (Homo sapiens, UniProt P21453); assay: Inhibition of cAMP production (HTRF cAMP HiRange), S1P1 CHO-K1 cells
[2] = biological target: human sphingosine-1-phosphate receptor 2 (S1P2) (Homo sapiens, UniProt O95136); assay: Selectivity: inositol monophosphate production (IP-one), S1P2 CHO-K1 cells
[3] = biological target: human sphingosine-1-phosphate receptor 3 (S1P3) (Homo sapiens, UniProt Q99500); assay: Selectivity: inhibition of cAMP production (HTRF), S1P3 CHO-K1 cells; conditions: efficacy normalized to maximal efficacy of fimgolimod
[4] = biological target: sphingosine-1-phosphate receptor 5 (S1P5) (Homo sapiens, UniProt Q9H228); assay: Selectivity: inhibition of cAMP production (HTRF), S1P5 CHO-K1 cells; conditions: efficacy normalized to maximal efficacy of fimgolimod

CC(C)Oc1ccc(-c2nc(-c3ccc4c(c3)nnn4C(C)C)no2)cc1C#N [Compound 22, 2-isopropoxy-5-(3-(1-isopropyl-1H-benzo[d] [1,2,3]triazol-5-yl)-1,2,4-oxadiazol-5-yl)benzonitrile]
EC50 [1]: < 316 nM | hS1P2 IP-one SPAN [2]: <50 | hS1P3 cAMP SPAN [3]: <50 | hS1P5 cAMP SPAN [4]: <50
